# Measured values reported in PubChem BioAssay AID570 (The Scripps Research Institute Molecular Screening Center, 2006).
# The entries are a selection whose mix differs from that of the whole data set. Some of these compounds have results that are not shown, active ones among them. Active and inactive are the calls of the source.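 The calls were made as follows: active = inhibition above the mean of compound-free control plate wells plus 3 SD (cut at about 14% in these data); inactive = the rest.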
# Target: Collagenase 3 (Homo sapiens) (UniProt P45452)
# Test: inhibition of MMP13 collagenase activity – biochemical, FRET peptide cleavage, primary screen (AID 570);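 also: 0% = DMSO wells and 100% = wells with reference MMP-13 inhibitor after basal subtraction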
# Conditions: MMP-13 fTHP FRET cleavage, Mca fluorescence; at 4 µM; active compounds read high
row,SMILES,inhibition
1,O=C(OC1CN2CCC1CC2)C(CO)(c1ccccc1)c1ccccc1 (configuration not stated),inactive: -2.8%
2,CN(C)c1cccc(C(=O)NCC2(N(C)C)CCCCC2)c1,inactive: -10.2%
